The values below come from patent publication US10266527B2, “T-box riboswitch-binding anti-bacterial compounds” (THE RESEARCH FOUNDATION FOR THE STATE UNIVERSITY OF NEW YORK, priority 2013, dated 2019).

This data set relates to Human Embryonic Kidney (HEK293) cells. The data set can be described thus: Toxicity on a monolayer of HEK293 cells. The conditions noted are these: 1 ug/ml. The class given is cell-based.

Take Gentamicin [reference compound]: the “16 hr post exposure % Live” value was 100%, the “16 hr post exposure Morphology” value is on record as “Normal”, the “24 hr post exposure % Confluent” value is on record as 90% and the “24 hr post exposure % Live” value came to 100%. The “24 hr post exposure Morphology” value was “Normal”.
